Source: patent publication US20030229002A1, “Use of agents that modulate PDE11A activity” (Pfizer Inc., priority 2002, published 2003)

The chains behind the UniProt entries cited, without tags or fusion partners. Where a name states a change or a piece, a line headed by the entry shows the natural chain unless it says otherwise. Residues count along the entry.
UniProt O76083: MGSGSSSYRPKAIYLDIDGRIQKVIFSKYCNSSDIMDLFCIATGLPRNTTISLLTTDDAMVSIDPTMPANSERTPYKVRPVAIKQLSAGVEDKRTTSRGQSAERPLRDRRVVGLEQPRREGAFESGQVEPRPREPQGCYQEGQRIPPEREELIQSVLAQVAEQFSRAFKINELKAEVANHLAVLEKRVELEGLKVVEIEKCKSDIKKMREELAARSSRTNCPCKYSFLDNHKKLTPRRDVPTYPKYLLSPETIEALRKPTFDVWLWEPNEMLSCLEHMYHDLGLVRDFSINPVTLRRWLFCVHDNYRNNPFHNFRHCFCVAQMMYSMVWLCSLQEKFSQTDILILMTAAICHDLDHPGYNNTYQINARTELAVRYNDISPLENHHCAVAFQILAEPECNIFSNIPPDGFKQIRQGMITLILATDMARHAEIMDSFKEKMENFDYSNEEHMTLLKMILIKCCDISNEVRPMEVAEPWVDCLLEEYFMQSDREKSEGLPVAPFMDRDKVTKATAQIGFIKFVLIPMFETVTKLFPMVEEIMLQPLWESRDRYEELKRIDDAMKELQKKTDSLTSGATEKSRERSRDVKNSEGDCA
UniProt Q9HCR9, 445-933: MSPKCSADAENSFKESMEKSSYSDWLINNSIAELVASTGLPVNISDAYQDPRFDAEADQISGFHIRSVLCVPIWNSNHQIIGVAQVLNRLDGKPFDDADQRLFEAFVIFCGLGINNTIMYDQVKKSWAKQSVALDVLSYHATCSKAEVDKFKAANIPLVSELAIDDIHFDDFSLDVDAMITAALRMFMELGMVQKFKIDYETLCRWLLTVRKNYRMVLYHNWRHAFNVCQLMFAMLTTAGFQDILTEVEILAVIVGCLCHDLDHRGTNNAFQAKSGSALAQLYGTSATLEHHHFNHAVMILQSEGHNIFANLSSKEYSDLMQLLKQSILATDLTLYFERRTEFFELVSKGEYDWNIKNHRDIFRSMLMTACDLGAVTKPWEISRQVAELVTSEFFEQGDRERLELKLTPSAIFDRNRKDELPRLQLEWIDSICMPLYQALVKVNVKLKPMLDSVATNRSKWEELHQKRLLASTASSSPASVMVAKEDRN

Columns and labels:
Type in all cases: biochemical
[1] = biological target: T1, recombinant human PDE9 (Homo sapiens, UniProt O76083); test: PDE9 inhibition, SPA-based assay; conditions: Sf9 cells, geometric mean of at least 3 determinations
T1 construct: made in house; host or cells: Sf9 insect cells (baculovirus)

[2] = biological target: PDE5 (Homo sapiens, UniProt O76074); test: PDE5 inhibition, SPA-based cGMP hydrolysis assay; conditions: PDE5 isolated from human corpus cavernosum; geometric mean of at least 3 determinations
[3] = biological target: T2, recombinant human PDE11A (Homo sapiens, UniProt Q9HCR9); test: PDE11A inhibition, SPA-based cGMP hydrolysis assay
T2 construct: made in house; host or cells: Sf9 insect cells (baculovirus)

| IC50 [1] [nM] | Structure (SMILES) | IC50 [2] [nM] | selectivity for inhibiting PDE11A when compared to PDEs 7-10 [3] |
| --- | --- | --- | --- |
| 2480 | CCCc1nn(C)c2c(=O)[nH]c(-c3cc(S(=O)(=O)N4CCN(C)CC4)ccc3OCC)nc12 [Sildenafil, 5-[2-ethoxy-5-(4-methyl-1-piperazinylsulphonyl)phenyl]-1-methyl-3-n-propyl-1,6-dihydro-7H-pyrazolo[4,3-d]pyrimidin-7-one] | – | – |
| – | Clc1ccc2nc(-n3ccnc3)nc(NCc3ccccc3)c2c1 [UK-235,187, 6-Chloro-2-(1H-imidazol-1-yl)-N-(phenylmethyl)-,4-quinazolinamine, dihydrochloride] | 4.64 | – |
| – | O=C(O)C1CCN(c2nc(NCc3ccc4c(c3)OCO4)c3cc(Cl)ccc3n2)CC1 [Compound E4021, 1-[4-[(1,3-benzodioxol-5-ylmethyl)amino]-6-chloro-2-quinazolinyl]-4-piperidinecarboxylic acid, monohydrochloride] | 33.4 | demonstrated selectivity |

Counter-ions that a name gives are not always drawn.
